Source: patent US5559213A, “Polyethylene-protein conjugates” (Hoffmann-La Roche Inc., priority 1995, dated 1996)

Test system: CTLL cell
Assay: CTLL cell proliferation assay (specific activity of rIL-2)
Type: cell-based
Procedure: Pegylated rIL-2 was purified from the reaction mixture as described by Katre et al. [Proc. Nat. Acad. Sci., USA, 84:1483, (1987)] using hydrophic exchange chromatography (Bio-Rad; Biogel-phenyl 5-PW). A linear gradient with-decreasing salt from 1.53 to 0.0M (NH4)2 SO4 in 50 mM sodium phosphate pH 7.0 in 30 minutes was used to separate PEG-modified and unmodified rIL-2. Aliquots of the fractions were evaluated by SDS-PAGE and pooled fractions were assayed to determine its specific activity in a CTLL cell proliferation assay by the method described by Gillis et al. [J. Immunology 120:2027, (1978)]. Protein concentrations were determined spectrophotometrically at 280 nm using an extinction coefficient of 0.667 for rIL-2.The-specific activity of the rIL-2 isolated proteins is expressed as units/mg protein and the results are summarized in Table III.

In the case of “rIL-2: Recombinant Interleukin-2, unmodified; apparent molecular weight 15 kD by SDS-PAGE”, the “specific activity” value (Example 3, Table III: rIL-2 conjugated to PEG with reagent of Example 1, label = apparent molecular weight (kD)) was 2.0 × 10^7 units/mg and the specific activity (Example 13: rIL-2 pegylated with reagent of Example 11 (SRU 111.7)) was 2×10^7 units/mg.
